Patent US20070014810A1, “Inducing cellular immune responses to human papillomavirus using peptide and nucleic acid compositions” (priority 2003, published 2007)

Experiments:
HLA-A*3002 = HLA-A*3002 (Homo sapiens, UniProt P04439, D101N/D140H/D185E/E176R/F33S/G80R/H175R/K168Q/Q94H/R138E/R41S/V100E); assay: HLA class I binding assay using purified HLA molecules; conditions: allele A*3002, listed under supertypes A01 and A24; read-out: Standard Peptide IC50
HLA-A*2902 = HLA-A*2902 (Homo sapiens, UniProt P04439, A270S/D101N/D185E/E176V/E277Q/E87Q/F33T/G231S/H175R/I121M/I218V/I322F/K168Q/L300P/L318F/M331R/P208A/P217A/Q86L/T323A/T345S/V100A/V358M); assay: as above
[1] = tested on: A2/K^b mice, transgenic for the human HLA A2.1 allele; assay: Immunogenicity in HLA transgenic mice, in situ IFN-γ ELISA (secretory units); type: in vivo; conditions: HLA-A2 supertype peptide, Table 29 first entry
Protocol: Seven days after priming, splenocytes obtained from these animals are re-stimulated with syngenic irradiated LPS-activated lymphoblasts coated with peptide.
In vitro CTL activation: One week after priming, spleen cells (30×10^6 cells/flask) are co-cultured at 37° C. with syngeneic, irradiated (3000 rads), peptide coated lymphoblasts (10×10^6 cells/flask) in 10 ml of culture medium/T25 flask. After six days, effector cells are harvested and assayed for cytotoxic activity. […]
On the day of the assay, the plates are washed and blocked for 2 hours with 10% FBS in PBS. […] The following day, the cells are removed by washing the plates with PBS and Tween 20 and the amount of IFN-γ that was secreted and captured by the bound Clone RA-6A2 monoclonal antibody is measured using a sandwich format ELISA. […] The absorbance is read at 450 nm on a Labsystems Multiskan RC ELISA plate reader (Helsinki, Finland).
In situ IFN-γ ELISA data is then converted to secretory units (“SU”) for evaluation. […] The slope (m) and y intercept (b) are calculated using the formula [(100−b)/m]. Because the number of cells needed to secrete 100 pg of IFN-γ in response to peptide will be lower than the cell number required for 100 pg of spontaneous release, the reciprocal values are calculated. […]

How did the IC50 (HLA-A*3002) turn out when CC[C@H](C)[C@H](NC(=O)[C@@H](N)CCCNC(=N)N)C(=O)N[C@@H](CO)C(=O)NCC(=O)N[C@H](C(=O)N[C@@H](CC(=O)O)C(=O)N[C@@H](CCCNC(=N)N)C(=O)N[C@@H](Cc1ccc(O)cc1)C(=O)N[C@@H](Cc1ccc(O)cc1)C(=O)O)C(C)C was run?
Its IC50 is 3 nM.

With CC(C)C[C@H](NC(=O)[C@@H]1CCCN1C(=O)[C@@H](NC(=O)[C@@H](NC(=O)[C@H](C)NC(=O)[C@@H](NC(=O)[C@@H](N)Cc1ccc(O)cc1)[C@@H](C)O)C(C)C)C(C)C)C(=O)N[C@H](C(=O)N[C@@H](Cc1ccc(O)cc1)C(=O)O)C(C)C as the molecule, how does the IC50 (HLA-A*2902) read?
The IC50 was 5 nM.

For “KLPQLCTEV [analog peptide from the E6 protein of HPV-16 beginning at position 18, valine substitution at position 9]”, which “immunogenicity in secretory units (SU)” value [1] is on record?
Its value is 0.0 SU.
